The values that follow come from ChEMBL document CHEMBL4619807, “Exploration of Alternative Scaffolds for P2Y14 Receptor Antagonists Containing a Biaryl Core” (J Med Chem, 2020).

Amino acid sequences for entries named in this document (tags omitted). A change or cut given only in a name is not applied to a line headed by its entry.
UniProt Q12809: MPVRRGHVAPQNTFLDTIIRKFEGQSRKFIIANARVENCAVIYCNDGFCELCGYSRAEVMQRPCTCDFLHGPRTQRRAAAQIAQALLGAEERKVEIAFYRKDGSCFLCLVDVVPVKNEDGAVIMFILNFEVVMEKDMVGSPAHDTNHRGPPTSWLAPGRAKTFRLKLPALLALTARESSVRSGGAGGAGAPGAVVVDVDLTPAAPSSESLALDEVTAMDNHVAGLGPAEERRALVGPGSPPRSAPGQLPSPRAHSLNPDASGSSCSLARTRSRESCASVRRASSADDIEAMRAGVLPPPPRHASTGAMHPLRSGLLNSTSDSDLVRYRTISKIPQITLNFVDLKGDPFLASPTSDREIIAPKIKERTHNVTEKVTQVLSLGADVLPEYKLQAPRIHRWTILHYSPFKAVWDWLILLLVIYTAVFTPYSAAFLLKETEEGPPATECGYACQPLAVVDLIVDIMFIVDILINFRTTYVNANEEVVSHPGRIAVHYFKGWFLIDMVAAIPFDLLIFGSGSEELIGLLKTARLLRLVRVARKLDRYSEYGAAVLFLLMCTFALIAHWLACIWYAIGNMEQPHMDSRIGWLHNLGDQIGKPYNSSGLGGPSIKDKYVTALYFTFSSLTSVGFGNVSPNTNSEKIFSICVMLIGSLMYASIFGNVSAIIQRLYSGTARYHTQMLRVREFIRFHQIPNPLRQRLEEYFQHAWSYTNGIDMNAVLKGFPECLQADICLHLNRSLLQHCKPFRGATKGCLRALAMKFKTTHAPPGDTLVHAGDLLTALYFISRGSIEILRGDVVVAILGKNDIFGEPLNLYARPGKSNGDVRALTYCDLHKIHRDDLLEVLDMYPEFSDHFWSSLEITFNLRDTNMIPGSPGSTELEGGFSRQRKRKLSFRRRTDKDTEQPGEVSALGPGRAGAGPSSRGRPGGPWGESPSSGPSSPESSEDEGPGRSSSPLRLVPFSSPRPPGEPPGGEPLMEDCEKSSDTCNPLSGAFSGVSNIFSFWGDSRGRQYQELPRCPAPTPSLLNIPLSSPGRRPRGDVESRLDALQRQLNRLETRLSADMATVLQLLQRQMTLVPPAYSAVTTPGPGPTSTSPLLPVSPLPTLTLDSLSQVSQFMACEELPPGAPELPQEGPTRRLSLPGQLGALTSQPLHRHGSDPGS

Data set [1] can be described thus: Stability in simulated intestinal fluid assessed as compound remaining level at 120 mins. It counts as physicochemical. Conditions: simulated gi fluid, 2 h.
Data set [2] is described as follows: Stability in simulated gastric fluid assessed as compound remaining level at 120 mins. It counts as physicochemical. The settings on record: simulated gi fluid, 2 h.
Data set [3] concerns the target Voltage-gated inwardly rectifying potassium channel KCNH2 (Homo sapiens, UniProt Q12809). The experiment in a line: Inhibition of human ERG.
Data set [4] can be described thus: Stability in rat plasma assessed as compound remaining level at 120 mins. Conditions: 2 h. In kind it is ADME, cell-free.

For `O=C(O)c1cc(-c2ccc(C34CCN(CC3)CC4)cc2)c2ccc(-c3ccc(C(F)(F)F)cc3)cc2c1`, the Stability in data set [1] is given as 99.7%; in data set [2], 74.2%; in data set [4], 79.9%. This molecule had an IC50 in data set [3] of 16.4 µM.

By IC50 is commonly meant the concentration needed to halve the response being measured. Lower therefore signals greater potency in that assay.
